The entries are a selection whose mix differs from that of the whole data set. Some salts and complexes are drawn in separate pieces, as the source files them; their charges need not balance. Activity calls are given as the source filed them. Cut-off read from the data, not from the text of the source: active = inhibition above about 30% (passing the limit was not always enough); inconclusive = no clear call, values can overlap the other calls.
tested on: PvdQ acylase [Pseudomonas aeruginosa LESB58]; test: P. aeruginosa PvdQ acylase inhibitors, primary screen, biochemical, fluorescence, plate reader and imaging, single point (AID 488965); conditions: purified PvdQ acylase, at 10 µM, active compounds read high;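 note: 0% = vehicle neutral wells and 100% = reference inhibitor wells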

SMILES	inhibition
CCN(CC)CCCOC(=O)C(O)(c1ccccc1)C1CCCCC1 (stereo not given)	inactive: -12.4%
Cc1c([N+](=O)[O-])cc([N+](=O)[O-])c(Br)c1[N+](=O)[O-]	inactive: -7.01%
O=[N+]([O-])c1cc([N+](=O)[O-])c(OC2CCCCC2O)c([N+](=O)[O-])c1 (stereo not given)	inactive: -22.6%
CCCCCOc1ccc(NP(C)(=O)Oc2ccc(Cl)cc2Cl)cc1 (stereo not given)	inactive: -15.3%
CP(=O)(Nc1ccccc1)Oc1ccc(F)cc1 (stereo not given)	inactive: -5.11%
COc1ccc(OP(C)(=O)Nc2ccc(SC(F)(F)F)cc2)cc1 (stereo not given)	inactive: -14.8%
CCOC(=O)c1ccc(NP(C)(=O)Oc2ccc(F)cc2)cc1 (stereo not given)	inactive: -14.6%
O=C(OCCN1CCN(CCOCc2ccccc2)CC1)C(O)(c1ccccc1)c1ccccc1	inactive: -1.43%
O=C(OC1CN2CCC1CC2)c1ccc([N+](=O)[O-])cc1 (stereo not given)	inactive: -10.6%
COc1ccc2c(c1O)-c1c(O)c(OC)cc3c1[C@H](C2)[N+](C)(C)CC3.O=[N+]([O-])c1cc([N+](=O)[O-])c([O-])c([N+](=O)[O-])c1[O-]	inactive: -0.87%
CC(C)c1ccc(OP(C)(=O)Nc2ccc(SC(F)(F)F)cc2)cc1 (stereo not given)	inactive: -8.45%
CP(=O)(Nc1ccccc1F)Oc1ccccc1 (stereo not given)	inactive: -5.47%
CP(=O)(Nc1ccc2c(c1)OCCO2)Oc1ccccc1 (stereo not given)	inactive: -10.7%
Cc1ccccc1NP(C)(=O)Nc1ccccc1C	inactive: -9.67%
CP(=O)(Nc1ccc(SC(F)(F)F)cc1)Oc1ccc(F)cc1 (stereo not given)	inactive: -11%
CCOP(C)(=S)SCC(=O)NC(C)(CC)C(=O)O (stereo not given)	inactive: -5.67%
O=[N+]([O-])c1cc([N+](=O)[O-])c(NCC2CCS(=O)(=O)C2)c([N+](=O)[O-])c1 (stereo not given)	inactive: -11.1%
Cc1cc(-c2cccc3ccccc23)c(C)cn1.O=[N+]([O-])c1cc([N+](=O)[O-])c(O)c([N+](=O)[O-])c1	inactive: 0.839%
O=[N+]([O-])c1ccc(OP2(=O)COCCO2)cc1 (stereo not given)	inactive: -9.25%
Cc1c(C(c2ccc3c(c2)OCO3)c2c(C)n(C)n(-c3ccccc3)c2=O)c(=O)n(-c2ccccc2)n1C.O=[N+]([O-])c1cc([N+](=O)[O-])c(O)c([N+](=O)[O-])c1	inactive: -11.7%
COc1ccc(OP(C)(=O)Nc2cccc(Br)c2)cc1 (stereo not given)	inactive: -7.15%
COc1ccc(NP(C)(=O)Oc2ccccc2OC)cc1 (stereo not given)	inactive: 0.398%
CN(C)CCOC(=O)C(O)(c1ccccc1)C1CCCCC1 (stereo not given)	inactive: -7.51%

SMILES	inhibition
CP(=O)(OC12CC3CC(CC(C3)C1)C2)OC12CC3CC(CC(C3)C1)C2	inactive: -12.3%
CCOC(=O)c1ccc(NP(C)(=O)Oc2ccc(Cl)cc2)cc1 (stereo not given)	inactive: -10.5%
CP(=O)(Nc1ccc(Cl)cc1)Oc1ccc(F)cc1 (stereo not given)	inactive: 0.0445%
COc1ccccc1OP(C)(=O)Nc1ccccc1Br (stereo not given)	inactive: -12.1%
CC(C)(C)c1ccc(OP(C)(=O)O)cc1	inactive: -1.36%
CN(C)C(=O)c1c([N+](=O)[O-])cc([N+](=O)[O-])cc1[N+](=O)[O-]	inactive: -19.5%
COc1ccc(OP(C)(=O)Nc2ccc(Br)cc2)cc1 (stereo not given)	inactive: -6.6%
CCN(CC)CC(O)COC(=O)C(O)(c1ccccc1)C1CCCCC1 (stereo not given)	inactive: 0.073%
CCc1ccc(OP(C)(=O)Nc2cccnc2)cc1 (stereo not given)	inactive: -12.2%
CP(=O)(Oc1ccccc1)N1CCOC1=O (stereo not given)	inactive: 1.68%
O=C(OCCCN1CCCC1)C(O)(c1ccccc1)C1CCCCC1 (stereo not given)	inactive: -6.08%
COc1ccccc1OP(C)(=O)Nc1c(C)n(C)n(-c2ccccc2)c1=O (stereo not given)	inactive: -6.99%
Cc1c(NP(C)(=O)Oc2ccc(C(C)C)cc2)c(=O)n(-c2ccccc2)n1C (stereo not given)	inactive: -2.34%
O=[N+]([O-])c1cc([N+](=O)[O-])c(Nc2ccccn2)c([N+](=O)[O-])c1	inactive: 4.25%
CCc1ccc(OP(C)(=O)O)cc1	inactive: -5.98%
COc1ccccc1OP(C)(=O)Nc1ccc(C)cc1C (stereo not given)	inactive: -1.44%
CP(=O)(Nc1ccccn1)Oc1ccccc1 (stereo not given)	inactive: 2.93%
COc1ccccc1OP(C)(=O)Nc1ccc(Br)cc1 (stereo not given)	inactive: 0.0285%
CN(C)CCOC(=O)C(O)(c1ccccc1)C1CCCC1 (stereo not given)	inactive: -20.9%
COc1ccc(OP(C)(=O)Nc2ccccn2)cc1 (stereo not given)	inactive: -4.13%
CP(=O)(Nc1ccc(Cl)cc1Cl)Oc1ccccc1 (stereo not given)	inactive: -0.276%
CCCCCCCCCCCCCCCC1C[N+](C)(C)CCOP(C)(=O)O1 (stereo not given)	inactive: 10.5%
CP(=O)(OCCOc1ccccc1)OCCOc1ccccc1	inactive: 1.36%

SMILES	inhibition
Cc1cc(C)cc(OP(C)(=O)Nc2cccc(C(F)(F)F)c2)c1 (stereo not given)	inactive: 4.31%
O=C1C(O)=C([N+](=O)[O-])C(=O)C(O)=C1[N+](=O)[O-]	inactive: -7.51%
COc1ccc(OP(C)(=O)Nc2ccccc2Br)cc1 (stereo not given)	inactive: -16.1%
COc1ccccc1OP(C)(=O)Nc1ccc(C)c(C)c1 (stereo not given)	inactive: -5.57%
CCOC(=O)c1ccc(NP(C)(=O)Oc2ccccc2)cc1 (stereo not given)	inactive: -6.06%
Cc1ccc(NP(C)(=O)Oc2ccccc2)c(C)c1 (stereo not given)	inactive: -15.4%
COc1ccccc1OP(C)(=O)Nc1ccc(C)cc1 (stereo not given)	inactive: -2.99%
COc1ccc(OP(C)(=O)Nc2cccc(F)c2)cc1 (stereo not given)	inactive: -8.49%
COc1ccccc1OP(C)(=O)Nc1cc(Cl)ccc1C (stereo not given)	inactive: -11.6%
Cc1cc(C)cc(OP(C)(N)=O)c1 (stereo not given)	inactive: -7.79%
O=[N+]([O-])c1cc([N+](=O)[O-])c(Nc2cccnc2)c([N+](=O)[O-])c1	inactive: -11.2%
Cc1cccc(C)c1OP(C)(N)=O (stereo not given)	inactive: 2.11%
CC(C)(C)c1ccc(OP(C)(=O)Nc2ccc(SC(F)(F)F)cc2)cc1 (stereo not given)	inactive: -0.655%
O=[N+]([O-])c1ccc2c(c1)C=Nc1ccccc1O2	inactive: 18.8%
CCN(CC)CCCOC(=O)C(O)(c1ccccc1)c1ccccc1	inactive: 6.02%
CCOP(C)(=S)SCC(=O)NC(C)C(=O)O (stereo not given)	inactive: -14.3%
CCOC(=O)c1ccc(NP(C)(=O)Oc2ccc(OC)cc2)cc1 (stereo not given)	inactive: -12%
CP(=O)(Nc1ccccn1)Oc1ccc(Cl)cc1 (stereo not given)	inactive: 0.51%
CP(=O)(Oc1ccccc1)OC(c1ccccc1)C(F)(F)F (stereo not given)	inactive: -8.69%
Cc1cccc(C)c1OP(C)(=O)Nc1ccc(SC(F)(F)F)cc1 (stereo not given)	inactive: -8.32%
Cc1cc(C)cc(OP(C)(=O)Nc2ccc(SC(F)(F)F)cc2)c1 (stereo not given)	inactive: 11.8%
CP(=O)(NC(=O)Nc1ccccc1)Oc1ccccc1 (stereo not given)	inactive: 3.97%
CCc1ccc(OP(C)(=O)N2CCN(c3ccc([N+](=O)[O-])cc3)CC2)cc1 (stereo not given)	inactive: -7.82%

SMILES	inhibition
CP(=S)(Nn1cnnc1)Oc1ccccc1 (stereo not given)	inactive: 9.04%
COc1ccccc1OP(C)(=O)Nc1ccccc1 (stereo not given)	inactive: -3.2%
CP(=O)(Nc1ccccc1Br)Oc1ccccc1 (stereo not given)	inactive: -10.4%
CN1CCCCC1COC(=O)C1(O)c2ccccc2CCc2ccccc21 (stereo not given)	inactive: 5.61%
COc1ccccc1OP(C)(=O)Nc1c(C)cccc1C (stereo not given)	inactive: -3.72%
CCCOc1ccc(NP(C)(=O)Oc2ccc(Cl)cc2)cc1 (stereo not given)	inactive: -8.46%
CP(=O)(Nc1ccc(SC(F)(F)F)cc1)Oc1ccccc1 (stereo not given)	inactive: -1.27%
CCOC(=O)C(CC)C1=NC(C)(C)Cc2ccccc21.O=[N+]([O-])c1cc([N+](=O)[O-])c(O)c([N+](=O)[O-])c1 (stereo not given)	inactive: -3.12%
CC1=C2N=C(C=C3N=C(C(C)=C4[N-][C@@](C)([C@@H]5N=C1[C@](C)(CCC(=O)NC[C@@H](C)OP(=O)([O-])O[C@H]1[C@@H](O)[C@@H](n6cnc7cc(C)c(C)cc76)O[C@@H]1CO)[C@H]5CC(N)=O)[C@@](C)(CC(N)=O)[C@@H]4CCC(N)=O)[C@@](C)(CC(N)=O)[C@@H]3CCC(N)=O)C(C)(C)[C@@H]2CCC(N)=O.[C-]#N.[Co+3]	inactive: 2.13%
O=[N+]([O-])c1cc([N+](=O)[O-])c(Nc2nnnn2CCO)c([N+](=O)[O-])c1	inactive: -1.15%
O=[N+]([O-])c1cc([N+](=O)[O-])c(-c2cnn(-c3ccccc3)c2)c([N+](=O)[O-])c1	inactive: -16.1%
Cc1nc2ccc3ccccc3c2s1.O=[N+]([O-])c1cc([N+](=O)[O-])c(O)c([N+](=O)[O-])c1	inactive: -8.46%
O=[N+]([O-])c1cc([N+](=O)[O-])c(-n2nnc3ccccc32)c([N+](=O)[O-])c1	inactive: 2.67%
Cc1cc(C)cc(OP(C)(=O)Nc2ccccn2)c1 (stereo not given)	inactive: 2.18%
CP(=O)(Nc1cccc(Br)c1)Oc1ccccc1 (stereo not given)	inactive: -5.76%
Cc1ccc(C)c(NP(C)(=O)Oc2ccccc2)c1 (stereo not given)	inactive: 4.38%
COc1ccccc1OP(C)(=O)Nc1cccc(Br)c1 (stereo not given)	inactive: -17.8%
Cc1cc(C)cc(OP(C)(=O)Nc2ccc(C)cc2C)c1 (stereo not given)	inactive: -5.96%
CCOC(=O)c1ccc(NP(C)(=O)Oc2cc(C)cc(C)c2)cc1 (stereo not given)	inactive: -10.9%
CC1=NCCc2c1[nH]c1ccccc21.O=[N+]([O-])c1cc([N+](=O)[O-])c(O)c([N+](=O)[O-])c1	inactive: -5.65%
O=C(O)c1cccc(Nc2c([N+](=O)[O-])cc([N+](=O)[O-])cc2[N+](=O)[O-])c1	inactive: -5.03%
